Paper PMC9841533, “Microtubule-Stabilizing 1,2,4-Triazolo[1,5-a]pyrimidines as Candidate Therapeutics for Neurodegenerative Disease: Matched Molecular Pair Analyses and Computational Studies Reveal New Structure–Activity Insights” (Journal of Medicinal Chemistry, 2022)

Columns and labels:
[1] = test system: acetylated α-tubulin (AcTub) levels in QBI293 cells; assay: QBI293 cell assay of MT stabilization: acetylated α-tubulin ELISA; assay type: cell-based
[2] = test system: total α-tubulin (α-Tub) levels in QBI293 cells; assay: QBI293 cell assay: total α-tubulin ELISA; assay type: cell-based
[3] = 4 h, QBI293 cells, 1 uM compound, read-out: AlfaTub (1uM)
[4] = 4 h, QBI293 cells, 10 uM compound, read-out: AlfaTub (10 uM)
[5] = QBI293 cells, 4 h incubation, 1 μM, read-out: α-Tub 1 μM, fold-change compared to vehicle (DMSO)-treated cells
[6] = 4 h, QBI293 cells, 1 uM compound, read-out: AcTub (1uM)
[7] = 4 h, QBI293 cells, 10 uM compound, read-out: AcTub (10 uM)
[8] = QBI293 cells, 4 h incubation, 1 μM
[9] = QBI293 cells, 4 h incubation, 1 μM, read-out: AcTub 1 μM, fold-change compared to vehicle (DMSO)-treated cells
[10] = QBI293 cells, 4 h incubation, 10 μM
[11] = QBI293 cells, 4 h incubation, 10 μM, read-out: AcTub 10 μM, fold-change compared to vehicle (DMSO)-treated cells
[12] = QBI293 cells, 4 h incubation, 10 μM, read-out: α-Tub 10 μM, fold-change compared to vehicle (DMSO)-treated cells

Compound | AcTub (1uM) ([1]; QBI293 cells, 1 uM compound) | AcTub (1 uM - normalized) ([1]; QBI293 cells, 1 uM compound) | AcTub (10 uM) ([1]; QBI293 cells, 10 uM compound) | AcTub (10 uM - normalized) ([1]; QBI293 cells, 10 uM compound) | fold induction at 1 µM [2, 3] | fold induction at 10 µM [2, 4] | fold induction at 1 µM [2, 5] | fold induction at 1 µM [1, 6] | fold induction at 10 µM [1, 7] | AcTub 1 μM, fold-change compared to positive control compound 5 (100 nM) (in parentheses) [1, 8] | fold induction at 1 µM [1, 9] | AcTub 10 μM, fold-change compared to positive control compound 5 (100 nM) (in parentheses) [1, 10] | fold induction at 10 µM [1, 11] | fold induction at 10 µM [2, 12] | fold induction at 10 µM ([2]; QBI293, 4 h, read-out: α-Tub 10 μM, fold-change compared to vehicle (DMSO)-treated cells) | fold induction at 1 µM ([1]; QBI293, 4 h, read-out: AcTub 1 μM, fold-change compared to vehicle (DMSO)-treated cells) | fold induction at 10 µM ([1]; QBI293, 4 h, read-out: AcTub 10 μM, fold-change compared to vehicle (DMSO)-treated cells)
CC(C)[C@H](C)Nc1c(-c2c(F)cc(F)cc2F)c(Cl)nc2ncnn12 [Compound 7] | 1.32 | 0.06 | 3.49 | 0.15 |  |  |  |  |  |  |  |  |  |  |  |  | 
CC(C)[C@@H](Nc1c(-c2c(F)cc(OCCCN(C)C)cc2F)c(Cl)nc2ncnn12)C(F)(F)F [Compound 22, (R)-3-(4-(5-Chloro-7-((1,1,1-trifluoro-3-methylbutan-2-yl)amino)-[1,2,4]triazolo[1,5-a]pyrimidin-6-yl)-3,5-difluorophenoxy)-N,N-dimethylpropan-1-aminium Formate] |  |  |  | 0.81 | 1.08 | 1.13 | 1.08 ± 0.02 | 10.7 | 8.41 | 1.04 fold-change | 10.7 ± 0.6 | 0.81 fold-change | 8.41 ± 0.31 |  |  |  | 
CC(C)[C@H](Nc1c(-c2c(F)cc(OCCCN(C)C)cc2F)c(Cl)nc2ncnn12)C(F)(F)F [Compound 23, (S)-3-(4-(5-Chloro-7-((1,1,1-trifluoro-3-methylbutan-2-yl)amino)-[1,2,4]triazolo[1,5-a]pyrimidin-6-yl)-3,5-difluorophenoxy)-N,N-dimethylpropan-1-aminium Formate] |  |  |  | 0.22 | 0.87 |  |  | 12 | 2.05 | 1.26 fold-change |  | 0.22 fold-change |  | 1.13 ± 0.02 |  |  | 
C[C@@H](Nc1c(-c2c(F)cc(OCCCN(C)C)cc2F)c(Cl)nc2ncnn12)C(C)(C)C [Compound 24, (R)-3-(4-(5-Chloro-7-((3,3-dimethylbutan-2-yl)amino)-[1,2,4]triazolo[1,5-a]pyrimidin-6-yl)-3,5-difluorophenoxy)-N,N-dimethylpropan-1-aminium Formate] |  | 1.02 |  | 0.45 | 0.97 | 0.97 | 0.97 ± 0.06 | 6.75 | 2.99 |  | 6.75 ± 0.32 | 0.45 fold-change | 2.99 ± 0.02 |  |  |  | 
C[C@H](Nc1c(-c2c(F)cc(OCCCN(C)C)cc2F)c(Cl)nc2ncnn12)C(C)(C)C [Compound 27, (S)-5-Chloro-6-(4-(3-(dimethylamino)propoxy)-2,6-difluorophenyl)-N-(3,3-dimethylbutan-2-yl)-[1,2,4]triazolo[1,5-a]pyrimidin-7-aminium Formate] |  | 1.27 |  | 0.65 | 0.76 | 0.92 | 0.76 ± 0.02 | 8.41 | 4.33 | 1.27 fold-change | 8.41 ± 0.24 | 0.65 fold-change | 4.33 ± 0.21 | 0.92 ± 0.03 |  |  | 
C[C@H](Nc1c(-c2c(F)cc(OCCCN(C)C)cc2F)c(Cl)nc2ncnn12)C1CC1 [Compound 31, (S)-3-(4-(5-Chloro-7-((1-cyclopropylethyl)amino)-[1,2,4]triazolo[1,5-a]pyrimidin-6-yl)-3,5-difluorophenoxy)-N,N-dimethylpropan-1-aminium Formate] |  | 0.93 |  |  | 0.59 | 0.91 | 0.59 ± 0.06 | 6.26 |  | 0.93 fold-change | 6.26 ± 0.11 |  |  | 0.91 ± 0.09 |  |  | 
C[C@@H](Nc1c(-c2c(F)cc(OCCCN(C)C)cc2F)c(Cl)nc2ncnn12)C1CC1 [Compound 32, (R)-3-(4-(5-Chloro-7-((1-cyclopropylethyl)amino)-[1,2,4]triazolo[1,5-a]pyrimidin-6-yl)-3,5-difluorophenoxy)-N,N-dimethylpropan-1-aminium Formate] |  | 1.55 |  | 0.08 | 1.04 | 1.31 |  | 10.4 |  | 1.55 fold-change |  | 0.08 fold-change |  |  | 1.31 ± 0.18 | 10.4 ± 0.12 | 0.56 ± 0.08

Where a name gives a salt, the structure may show the parent alone. Read-outs that look alike come from different tables or passages of the source.
